From patent US11649222B2, “Compounds” (UNIVERSITETET I OSLO, priority 2016, dated 2023)
Like-named read-outs stand apart in the source and are kept apart here.

Legend:
[1] = tested on: K. pneumoniae K66-45; type: cell-based; conditions: inhibitor 25 mg/L
Protocol: After plating and grown overnight at 37° C., only single colonies, ignoring any touching the edges of the plate, were counted.
10^9 CFU K66-45 (Mueller-Hinton broth, no selection) was plated and grown overnight, 37° C. Only single colonies, ignoring any touching the edges of the plate, were counted.

[2] = In vivo toxicity in healthy mice; parameters: species or system Balb/c mice; conditions: ± SEM
Protocol: Female Balb/c mice (4 weeks old, approximately 20 g, Charles River, L'Arbresle, France) acclimatized 4 days in the animal facility before initiation of experiments. […] Individual weights were followed four days a week. Relative weight was calculated as the ratio between the weight of the day and the weight of the first day. The protocol for experiments in mice was approved by the University of Lyon Animal Ethics Committee. Toxicity experiments were performed by Antineo (www.antineo.fr).

In the case of CN(C[C@H](O)[C@@H](O)[C@H](O)[C@H](O)CO)C(=O)c1ccc(CN(Cc2ccccn2)Cc2ccccn2)nc1 [Example 26, 6-((bis(pyridin-2-ylmethyl)amino)methyl)-N-methyl-N-((2S,3R,4R,5R)-2,3,4,5,6-pentahydroxyhexyl)nicotinamide], the “RF - no of colonies” value ([1]; MEM 1 mg/L) is reported as 74 colonies, the “RF - no of colonies” value ([1]; MEM 2 mg/L) is reported as 35 colonies and the “Relative weight of mice” value ([2]; Day 1, treatment 4 mg/kg intraperitoneally) is reported as 100 ± 0%. The “Relative weight of mice” value ([2]; Day 8, treatment 8 mg/kg) was 101 ± 0%, the “Relative weight of mice” value ([2]; Day 16, treatment 16 mg/kg) was 105 ± 0% and the “Relative weight of mice” value ([2]; Day 22, treatment 32 mg/kg) was 105 ± 0%. The “Relative weight of mice” value ([2]; Day 29, treatment 64 mg/kg) was 106 ± 0%, the “Relative weight of mice” value ([2]; Day 36, treatment 120 mg/kg) was 109 ± 0% and the “Relative weight of mice” value ([2]; Day 43, no injection, reporting) was 107 ± 0%.
